# Literature values, collected in patent publication US20190106747A1, “DRUGS, PHARMACOGENOMICS AND BIOMARKERS FOR ACIVE LONGEVITY” (Indiana University Research and Technology Corporation, priority 2016, published 2019).
# Tested on: MME
# Conditions: Table 5 biomarkers in males; longevity direction of change D; cited from earlier work
smiles,measurement,value
CCOC(=O)[C@H](C)C[C@@H](Cc1ccc(-c2ccccc2)cc1)NC(=O)CCC(=O)O [sacubitril],MME modulated by drug in the same direction as longevity,sacubitril
